The list is not random: actives were taken first. Their share in the collection is about 3.7%.
A549 viability = counter-screen for Nrf2 inhibitors: cytotoxicity in A549 cells | A549 ARE-Fluc cells, CellTiter-Fluor viability, 18-24 h | Potency, µM (top dose mostly 46 µM), for the others: at the top dose activity change, negative = cytotoxicity, usual class: inhibitors | hit rate 0.16% among 390,000 | AID 504648; also: potency is read from the fitted curve at half-maximal effect; % is scaled to controls: 0 for no effect and ±100 for the full control effect
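A549 ARE_Fluc cells in 5% FBS OPTI-MEM were exposed to compounds in concentration-response for 18-24 h at 37 deg C. Viability was read by CellTiter-Fluor fluorescence (Ex 405/Em 525) after 30 min, before the luciferase read.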
p53 reactivation = restores transcriptional activity of mutant p53 | H1299 p53-A138V BP100-luciferase reporter, luminescence, 24 h | Potency, µM (highest dose often 92.2 µM), for inactives: at the top dose activity change, positive = activation, hits mostly activators | hit rate 0.063% among 320,000 | AID 504706; also: potency is read from the fitted curve at half-maximal effect; % of control where 0% means no effect; nearly all actives have a fitted effect of over 45% in size
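H1299 (p53-null), stable ts p53-A138V + BP100-Luc; 1000 cells/well, Opti-MEM/10% FBS; cpd 4 pt, 1:5; 24 h, 37 deg C, 5% CO2; detection reagent 10 min RT; luminescence.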
Nrf2 activator = Nrf2 pathway activation; AREc32 ARE-luciferase reporter (MCF7-derived line), luminescence, 24 h; Potency, µM (top dose mostly 46.1 µM), for inactives: at the top dose activation, hits mostly activators; hit rate 0.31% among 410,000; AID 624171; also: potency is read from the fitted curve at half-maximal effect; % of control where 0% means no effect; nearly all actives have a fitted effect of over 65% in size
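Nrf2 activation is followed as ARE-luciferase induction in the AREc32 line after one day of compound treatment; luminescence is read with Steady-Glo.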
ClpP mod = qHTS Assay for Activators of ClpP; ATP-dependent Clp protease proteolytic subunit (Bacillus subtilis (strain 168)), P80244; purified B. subtilis ClpP, FRET peptide cleavage, 20 min; Potency, µM (titrated, usually from 57.5 µM), for the others: at the highest dose activity change, negative = active; hit rate 1.9% among 340,000; active = well fitted falling curve with a large enough effect; inconclusive = small, poorly fitted or top-dose-only effect; inactive = no such curve, though single readings can be large or run the other way; also: potency is read from the fitted curve at half-maximal effect; the source files actives as falling curves though it sought activators and does not explain the sign; nearly all actives have a fitted effect of over 65% in size
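Buffer: 100 mM Tris/HCl pH8, 100 mM KCl, 0.05% low protease BSA, 2.5% glycerol, 0.01% Tween-20. ClpP 10 microg/mL final; 20 min RT; delta FRET normalized to ADEP and DMSO controls.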
Nrf2 inh = inhibitors of Nrf2 signaling. hit rate 2.1% among 360,000. AID 504444. A549 ARE-Fluc reporter, luciferase luminescence, 18-24 h. Potency, µM (series often up to 46 µM), for inactives: at the top dose activity change, negative = inhibition, usual class: inhibitors; also: potency is read from the fitted curve at half-maximal effect; % is scaled to controls: 0 for no effect and ±100 for the full control effect; nearly all actives have a fitted effect of over 60% in size
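Two sequential reads on A549 ARE_Fluc cells exposed to compound for 18-24 h: a CellTiter-Fluor fluorescence read for viability, then a luciferase luminescence read for Nrf2/ARE activity.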
miR-21 FLuc = miR-21 reporter, rising signal | HeLa miR-21 FLuc reporter, luciferase, 48 h | Potency, µM (top dose mostly 38.3 µM), inactives show at the highest dose reporter change, positive = more light | 340,000 tested, under 10 active | AID 2288; active = well fitted rising curve with a large enough effect; inconclusive = small, poorly fitted or top-dose-only effect; inactive = no such curve, though single readings can be large or run the other way;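 note: % of control where 0% means no effect; miR-21 action dims this reporter so a rising signal means less miR-21 action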
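HeLa cells endogenously expressing miR-21, stably carrying CMV-driven firefly luciferase with a downstream miR-21 binding site, 2000 cells/well. Titrations up to approximately 40 uM, 48 hours; luciferase luminescence read.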
* marks the source's active call; other numbers are inactive results. Unless noted, calls follow the shape of the dose curve; as a rule, active = well fitted curve in the direction sought with a large enough effect; inconclusive = small, poorly fitted or top-dose-only effect, or another doubt; inactive = no such curve, though single readings can be large; an effect the other way counts as inactive or inconclusive.

Screening CC(=O)OC[C@@H]1CN(Cc2ccccc2)C[C@H](n2cnc3c(NC4CC4)ncnc32)O1 returned Nrf2 activator -1% and ClpP mod -1%.
Screening CCN(CC)S(=O)(=O)c1ccc2c(c1)nc(CN(C)C(=O)c1cccc(Cl)c1)n2C returned A549 viability -1%, Nrf2 activator 0%, ClpP mod 0% and miR-21 FLuc -2%.
For CC(C)OC(=O)c1c(-c2ccccc2)c(-c2ccccc2)nn(C)c1=O the results were A549 viability -4%, Nrf2 activator 4%, ClpP mod 1%, Nrf2 inh 9.2µM* and miR-21 FLuc 12µM*.
`COC(=O)c1c(-c2ccccc2)c(-c2ccccc2)nn(C)c1=O` gave A549 viability -2%, Nrf2 activator 2%, ClpP mod -2%, Nrf2 inh -22% and miR-21 FLuc 8%.
`COc1ccc2c(c1)c1c(c(=O)n(-c3cccc(C)c3)c(=O)n1CC(=O)NCC1CCCO1)n2C` (stereo not given) gave A549 viability -14%, Nrf2 activator -1%, ClpP mod 4%, Nrf2 inh 17% and miR-21 FLuc -1%.
For O=C1C2C3C=CC(C3)C2C(=O)N1CCCCCCN1C(=O)C2C3C=CC(C3)C2C1=O (stereo not given) the results were A549 viability 1%, p53 reactivation 10%, Nrf2 activator -1%, Nrf2 inh 15µM* and miR-21 FLuc -59%.
`CCOc1ccc(C2C(C(=O)Nc3ccccc3)=C(C)Nc3nc(-c4ccccc4)nn32)cc1OC` (stereo not given) gave A549 viability 5%, Nrf2 activator 1%, ClpP mod -18%, Nrf2 inh -4% and miR-21 FLuc -6%.
CC(=O)N(C(C)=O)c1nc(-c2ccccc2)cn1/N=C/c1ccccc1 was read as A549 viability -11%, p53 reactivation 0%, Nrf2 activator 0%, ClpP mod 32µM*, Nrf2 inh inconclusive and miR-21 FLuc 29%.
`COc1cc2c(O)c3c(c(-c4ccc5c(c4)OCO5)c2cc1OC)C(=O)OC3` gave A549 viability 18µM*, p53 reactivation 4%, Nrf2 activator 6%, ClpP mod inconclusive, Nrf2 inh inconclusive and miR-21 FLuc 19%.
CCOC(=O)c1ccc(NC(=O)CN(c2ccc(C)cc2)S(=O)(=O)c2c(C)noc2C)cc1 was read as A549 viability 2%, Nrf2 activator -1%, ClpP mod 0%, Nrf2 inh 4% and miR-21 FLuc inconclusive.
For CCc1ccc(-n2nc(C)c3c(C(=O)N4CCN(c5cccc(Cl)c5)CC4)cc(C)nc32)cc1 the results were A549 viability 2%, Nrf2 activator 1%, ClpP mod -14%, Nrf2 inh inconclusive and miR-21 FLuc 17%.
`CCc1ccc(-n2nc(C)c3c(C(=O)N4CCN(c5ccccc5)CC4)cc(C)nc32)cc1` gave A549 viability 0%, Nrf2 activator 4%, ClpP mod -3%, Nrf2 inh 18µM* and miR-21 FLuc -2%.
For c1coc(-c2ccnc(-n3cccc3)n2)c1 the results were A549 viability 2%, p53 reactivation 2%, Nrf2 activator inconclusive, Nrf2 inh inconclusive and miR-21 FLuc -3%.
Clc1ccsc1-c1ccnc(-n2cccc2)n1 was read as A549 viability 8%, p53 reactivation 9%, Nrf2 activator 10µM*, Nrf2 inh inconclusive and miR-21 FLuc -26%.
Clc1ccsc1-c1ccc2ccccc2n1 was read as A549 viability -3%, p53 reactivation inconclusive, Nrf2 activator 10µM*, ClpP mod -29%, Nrf2 inh inconclusive and miR-21 FLuc -37%.
For c1ccc2nc(-c3nccs3)ccc2c1 the results were A549 viability 3%, p53 reactivation inconclusive, Nrf2 activator 3%, ClpP mod 4%, Nrf2 inh inconclusive and miR-21 FLuc -42%.
Screening Cc1ccsc1-c1ccnc(-n2cccc2)n1 returned A549 viability 9%, p53 reactivation 14%, Nrf2 activator 5µM*, ClpP mod -9%, Nrf2 inh inconclusive and miR-21 FLuc -8%.
For Clc1ccc(-c2ccnc(-n3cccc3)n2)s1 the results were A549 viability 4%, p53 reactivation 1%, Nrf2 activator inconclusive, ClpP mod 5%, Nrf2 inh 21% and miR-21 FLuc -6%.
For O=C(CN1C(=O)C(=O)N(Cc2ccco2)C1=O)c1c[nH]c2ccccc12 the results were A549 viability -12%, p53 reactivation 1%, Nrf2 activator 3%, ClpP mod -3%, Nrf2 inh 9% and miR-21 FLuc -18%.
Screening O=C(CN1C(=O)C(=O)N(CCC2=CCCCC2)C1=O)c1c[nH]c2ccccc12 returned A549 viability -17%, p53 reactivation 8%, Nrf2 activator 5%, ClpP mod 11µM* and Nrf2 inh inconclusive.

Three structures already listed, ordered by formula weight, rising.
Screening Cc1ccsc1-c1ccnc(-n2cccc2)n1 returned A549 viability 9%, p53 reactivation 14%, Nrf2 activator 5µM*, ClpP mod -9%, Nrf2 inh inconclusive and miR-21 FLuc -8%.
For O=C(CN1C(=O)C(=O)N(Cc2ccco2)C1=O)c1c[nH]c2ccccc12 the results were A549 viability -12%, p53 reactivation 1%, Nrf2 activator 3%, ClpP mod -3%, Nrf2 inh 9% and miR-21 FLuc -18%.
`CCc1ccc(-n2nc(C)c3c(C(=O)N4CCN(c5ccccc5)CC4)cc(C)nc32)cc1` gave A549 viability 0%, Nrf2 activator 4%, ClpP mod -3%, Nrf2 inh 18µM* and miR-21 FLuc -2%.

Additional compounds follow.
Screening CCOC(=O)c1ccc(NC(=O)CN(Cc2ccc(C)cc2)S(=O)(=O)c2ccc(C)cc2)cc1 returned A549 viability -2%, Nrf2 activator 12%, ClpP mod 0%, Nrf2 inh inconclusive and miR-21 FLuc 1%.
Screening C[C@H](CO)N1C[C@H](C)[C@@H](CN(C)CC2CCCCC2)Oc2c(NC(=O)CCC(F)(F)F)cccc2C1=O returned A549 viability -26%, p53 reactivation -12%, Nrf2 activator -1%, ClpP mod -20% and Nrf2 inh 18µM*.
Cc1noc(C)c1S(=O)(=O)N(C)C[C@H]1Oc2c(NC(=O)Nc3ccc(C(F)(F)F)cc3)cccc2C(=O)N([C@H](C)CO)C[C@@H]1C was read as A549 viability -20%, p53 reactivation 6%, Nrf2 activator 9%, ClpP mod 1% and Nrf2 inh 21µM*.
Screening CCOc1ccc(OCC)c(S(=O)(=O)N2CCN(c3cccc(C)c3C)CC2)c1 returned A549 viability 0%, Nrf2 activator -1%, ClpP mod 1%, Nrf2 inh -26% and miR-21 FLuc 21%.
Screening CCc1c(C)sc2c1CCN(C(=O)Nc1ccc(F)c(Cl)c1)C2c1ccc(F)cc1 (stereo not given) returned A549 viability inconclusive, Nrf2 activator 0%, ClpP mod -2% and miR-21 FLuc inconclusive.
